# Source: patent publication US20100015727A1, “METHOD FOR DETERMINING TRANSPORT ACTIVITY OF A TRANSPORT PROTEIN” (BOEHRINGER INGELHEIM INTERNATIONAL GMBH, priority 2006, published 2010)
# The chains behind the UniProt entries cited, without tags or fusion partners. Where a name states a change or a piece, a line headed by the entry shows the natural chain unless it says otherwise.
# UniProt O15439: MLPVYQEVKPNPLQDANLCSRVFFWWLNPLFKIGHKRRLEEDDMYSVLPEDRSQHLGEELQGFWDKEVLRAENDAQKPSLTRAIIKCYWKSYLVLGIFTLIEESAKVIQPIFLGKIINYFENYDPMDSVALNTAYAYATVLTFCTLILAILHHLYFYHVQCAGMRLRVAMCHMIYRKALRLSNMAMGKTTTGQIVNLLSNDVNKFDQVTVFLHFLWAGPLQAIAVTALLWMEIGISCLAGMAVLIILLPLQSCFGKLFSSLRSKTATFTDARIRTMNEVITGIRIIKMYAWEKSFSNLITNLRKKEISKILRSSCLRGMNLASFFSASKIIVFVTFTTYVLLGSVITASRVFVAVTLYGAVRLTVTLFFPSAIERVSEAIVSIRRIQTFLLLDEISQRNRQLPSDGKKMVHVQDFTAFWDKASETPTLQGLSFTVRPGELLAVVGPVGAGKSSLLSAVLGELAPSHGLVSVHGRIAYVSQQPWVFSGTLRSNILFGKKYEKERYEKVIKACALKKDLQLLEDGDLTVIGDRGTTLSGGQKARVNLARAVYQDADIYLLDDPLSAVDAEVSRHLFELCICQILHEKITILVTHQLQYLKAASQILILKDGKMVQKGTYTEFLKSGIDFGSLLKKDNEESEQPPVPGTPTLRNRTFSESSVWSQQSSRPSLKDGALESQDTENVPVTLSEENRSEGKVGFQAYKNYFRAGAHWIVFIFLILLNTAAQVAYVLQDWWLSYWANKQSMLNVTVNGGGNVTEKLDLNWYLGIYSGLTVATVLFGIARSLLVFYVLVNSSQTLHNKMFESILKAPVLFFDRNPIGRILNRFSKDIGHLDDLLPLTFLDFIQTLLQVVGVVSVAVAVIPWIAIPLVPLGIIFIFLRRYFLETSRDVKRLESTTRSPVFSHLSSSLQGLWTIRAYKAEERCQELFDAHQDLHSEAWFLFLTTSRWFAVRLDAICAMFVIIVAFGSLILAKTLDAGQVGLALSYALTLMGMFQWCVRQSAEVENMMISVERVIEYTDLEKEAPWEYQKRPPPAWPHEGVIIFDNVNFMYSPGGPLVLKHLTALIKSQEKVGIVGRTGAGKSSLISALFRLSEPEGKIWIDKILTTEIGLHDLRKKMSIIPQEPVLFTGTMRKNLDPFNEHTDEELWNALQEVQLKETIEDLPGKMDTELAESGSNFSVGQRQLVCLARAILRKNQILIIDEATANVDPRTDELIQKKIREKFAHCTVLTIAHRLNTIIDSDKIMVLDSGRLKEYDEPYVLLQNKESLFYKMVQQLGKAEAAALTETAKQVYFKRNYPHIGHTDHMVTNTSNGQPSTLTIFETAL
# Biological target: T1, MRP4 (Homo sapiens, UniProt O15439)
# T1 construct: infected with a baculovirus construct containing the full-length cDNA encoding MRP4; made in house; host or cells: Hi5 or Sf9 insect cells (baculovirus)
# Experiment: SPA assay of MRP4 transport activity (3H-folic acid uptake into membrane vesicles)
# Type: biochemical
# Details: inhibition of MRP4 transport of 3H-folic acid into membrane vesicles from baculovirus-infected insect cells; Protein A SPA beads, anti-MRP4 rabbit antiserum
# Protocol: • 1) Membrane vesicles from insect cells (Hi5 or Sf9) infected with a baculovirus construct containing the full-length cDNA encoding MRP4 are prepared as described by van Aubel et al. (van Aubel et al., 2002) with some modifications: Hi5 cells are cultured in suspension to a cell density of 1×10^6 cells/ml in Insect-Xpress serum free insect cell medium and infected with baculovirus construct containing the full-length cDNA encoding MRP4. Three days after infection, cells are collected by centrifugation at 3000 rpm for 10 min. […] Protein concentration of the membrane preparation is determined using standard methods, e.g. the BCA protein assay (Pierce, product number 23250). • 2) Determination of transport activity of MRP4: Membrane vesicles prepared in 1) are diluted in Tris/sucrose buffer to a concentration of 3.3 μg protein/μl. […] Luminescence signals are measured with the LEADSeeker or TopCount system after 30 min, 1 h, 2 h, 4 h, or up to 24 h. • 3) Calculation of inhibitory effect of a test compound: The relative transport activities of MRP4 determined in the presence of a test compound is calculated as percentage of luminescence determined in the presence of the test compound compared to luminescence determined in the absence of the test compound. […]
smiles,measurement,value
CN(C)C(=O)CCSC(SCCC(=O)O)c1cccc(/C=C/c2ccc3ccc(Cl)cc3n2)c1 (stereo not shown) [MK571],IC50,3.6 µM
